Measurements published in article PMC10799085, “A miniaturized mode-of-action profiling platform enables high throughput characterization of the molecular and cellular dynamics of EZH2 inhibition” (Scientific Reports, 2024).

Key:
PRC2/EZH2Y641N = target: T1, PRC2/EZH2Y641N (Homo sapiens, UniProt Q15910, Y641N); assay: Kinetic probe competition assay (kPCA), TR-FRET; assay type: binding
T1 construct: Synthetic cDNA encoding N-terminal 6His-tagged full length EZH2^Y641N; 6His (N); made in house; host or cells: Sf9 insect cells (baculovirus co-infection)

PRC2/EZH2+/+ = target: T2, PRC2/EZH2+/+ (Homo sapiens, UniProt Q15910); assay: Equilibrium binding thermodynamics (van't Hoff analysis of ePCA/kPCA at 5-37 °C)
T2 construct: purchased Active Motif

KARPAS-422 cells = assay: Cellular proliferation assay (AlamarBlue, 144 h); assay type: cell-based; settings: Homo sapiens, KARPAS-422, 144 h, read-out: KARPAS (6-day) Anti-proliferation IC50 (M)

Cc1cc(C)c(CNC(=O)c2cc(Cl)c3c(c2C)O[C@@](C)([C@H]2CC[C@H](N(C)C)CC2)O3)c(=O)[nH]1 [Compound 31, DS-3201]
Calculated RT (PRC2/EZH2Y641N): 0.69 h and 0.83 h | binding driving force, linear van't Hoff model (PRC2/EZH2+/+): entropy-driven | binding driving force, polynomial van't Hoff analysis (PRC2/EZH2+/+): entropy-driven | ΔCp (heat capacity change), equilibrium conditions (PRC2/EZH2+/+): smallest | IC50 (KARPAS-422 cells): 7.8e-08 M

Values joined by “and” are separate entries in the source; they are usually repeats but may differ in a detail not shown here. Equal values may be shown once.
